{"source": "paper PMC12903857", "about": "(Journal of the American Chemical Society, 2026)", "binders": {"B1": {"name": "acetylated 12-mer C-RAF peptide (peptide)", "chain": "QRSTSTPNVHMV", "modifications": "acetylated; phosphoserine at 259"}}, "target": "T1, 14-3-3σ, tagged with a Twin-Strep tag (UniProt P31947 1-248)", "T1 sequence (looked up)": "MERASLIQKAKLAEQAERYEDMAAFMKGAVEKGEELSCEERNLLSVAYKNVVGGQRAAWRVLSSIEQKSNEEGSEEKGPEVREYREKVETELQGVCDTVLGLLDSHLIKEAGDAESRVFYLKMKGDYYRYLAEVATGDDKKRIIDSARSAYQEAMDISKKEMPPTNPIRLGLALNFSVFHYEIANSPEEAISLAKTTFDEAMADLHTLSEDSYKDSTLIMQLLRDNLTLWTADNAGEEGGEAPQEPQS", "experiment": "SPR; 14-3-3σ with Twin-Strep tag immobilized on a Strep-Tactin XT-coated chip; 2-fold dilution series of acetylated 12-mer peptides starting at 50 μM; kinetic- and affinity-based fitting", "conditions": "both partners purified"}
{"binder": "B1", "values": [{"measurement": "Kd", "value": 2600, "unit": "nM"}]}
